Experimental data: patent publication US9120749B2, “Quinoline derivatives and MELK inhibitors containing the same” (ONCOTHERAPY SCIENCE, INC., priority 2010, dated 2015)
Where a name gives a salt, the structure may show the parent alone. Read-outs that look alike come from different tables or passages of the source.

Sequences of proteins named here, by UniProt entry; tags and fusion partners are left off. A change or cut given only in a name is not applied to a line headed by its entry.
UniProt Q14680: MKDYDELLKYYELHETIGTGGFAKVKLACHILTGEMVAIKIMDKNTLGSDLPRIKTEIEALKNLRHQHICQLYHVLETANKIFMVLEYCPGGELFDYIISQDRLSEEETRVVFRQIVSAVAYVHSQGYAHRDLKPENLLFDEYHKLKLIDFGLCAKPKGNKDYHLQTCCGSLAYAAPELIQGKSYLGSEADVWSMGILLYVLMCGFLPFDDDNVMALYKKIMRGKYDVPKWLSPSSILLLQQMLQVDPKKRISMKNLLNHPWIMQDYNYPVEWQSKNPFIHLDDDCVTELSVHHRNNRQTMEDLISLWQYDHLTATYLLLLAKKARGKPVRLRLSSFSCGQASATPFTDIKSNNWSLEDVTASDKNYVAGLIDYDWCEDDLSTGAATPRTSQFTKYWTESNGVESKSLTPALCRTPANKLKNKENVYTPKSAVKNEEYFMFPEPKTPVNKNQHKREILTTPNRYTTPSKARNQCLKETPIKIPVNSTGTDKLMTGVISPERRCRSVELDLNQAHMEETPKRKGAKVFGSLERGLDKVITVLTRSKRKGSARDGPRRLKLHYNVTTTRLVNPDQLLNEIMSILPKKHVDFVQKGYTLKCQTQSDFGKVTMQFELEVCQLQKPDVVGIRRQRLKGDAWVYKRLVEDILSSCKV

Target: MELK (Homo sapiens, UniProt Q14680)
Experiment: Kinase assay: MELK activity, phosphorylation of FITC-labeled histone H3 peptide measured by IMAP fluorescence polarization
Assay type: biochemical
Protocol: MELK activity was determined in the presence or absence of compounds using fluorescein isothiocyanate-labeled (FITC-labeled) histone H3 peptide as a substrate. […] Test compounds were dissolved in DMSO at 12.5 mM and then serially diluted as the DMSO concentration in the assays to be 1%. […] The reaction was stopped by the addition of three fold assay volume of progressive binding solution. Following 0.5 hour incubation at room temperature, fluorescence polarization was measured by Wallac EnVision 2103 multilabel reader (PerkinElmer).

Row | SMILES | IC50 [µM] | also measured
1 | CC(=O)c1cnc2ccc(-c3cc(Cl)c(O)c(Cl)c3)cc2c1N[C@H]1CC[C@H](CCN(C)C)CC1 [Example 739, 1-(6-(3,5-dichloro-4-hydroxyphenyl)-4-((trans-4-(2-(dimethylamino)ethyl)cyclohexyl)amino)quinolin-3-yl)ethanone] | 0.0032 | 
2 | CN(C)CCNc1ccc(Nc2c(C(=O)C3CC3)cnc3ccc(-c4cc(F)c(O)c(Cl)c4)cc23)cn1 [Example 777, (6-(3-chloro-5-fluoro-4-hydroxyphenyl)-4-(6-(2-(dimethylamino)ethylamino)pyridin-3-ylamino)quinolin-3-yl)(cyclopropyl)methanone trihydrochloride] |  | IC50 (trihydrochloride): 0.0034 µM
3 | COc1cc(-c2ccc3ncc(C(C)=O)c(Nc4ccc(CN5CCCC5)cc4)c3c2)cc(Cl)c1O [Example 419, 1-(6-(3-chloro-4-hydroxy-5-methoxyphenyl)-4-(4-(pyrrolidin-1-ylmethyl)phenylamino)quinolin-3-yl)ethanone] |  | IC50 (50 micro-M ATP, FITC-labeled histone H3 peptide substrate, IMAP fluorescence polarization): 0.0059 µM
4 | CN1CCN(Cc2ccc(-c3c(C(=O)C4CC4)cnc4ccc(-c5cc(Cl)c(O)c(Cl)c5)cc34)cc2)CC1 [Example 482, cyclopropyl(6-(3,5-dichloro-4-hydroxyphenyl)-4-(4-((4-methylpiperazin-1-yl)methyl)phenyl)quinolin-3-yl)methanone] | 0.0061 | 
5 | COc1cc(-c2ccc3ncc(C(C)=O)c(Nc4ccc(CN5CCN(C)CC5)cc4)c3c2)cc(Cl)c1O [Example 653, 1-(6-(3-chloro-4-hydroxy-5-methoxyphenyl)-4-(4-((4-methylpiperazin-1-yl)methyl)phenylamino)quinolin-3-yl)ethanone] | 0.0098 | 
6 | CN1CCN(C[C@H]2CC[C@H](Nc3c(C(=O)C4CC4)cnc4ccc(-c5cc(F)c(O)c(Cl)c5)cc34)CC2)CC1 [Example 636] | 0.0098 | 
7 | CN(C)CCNc1ccc(Nc2c(C(=O)C3CC3)cnc3ccc(-c4cc(F)c(O)c(Cl)c4)cc23)cn1 [Example 776, (6-(3-chloro-5-fluoro-4-hydroxyphenyl)-4-(6-(2-(dimethylamino)ethylamino)pyridin-3-ylamino)quinolin-3-yl)(cyclopropyl)methanone] | 0.0027 | 
8 | COc1cc(-c2ccc3ncc([S+](C)[O-])c(N[C@H]4CC[C@H](N)CC4)c3c2)cc(Cl)c1O (some centres unmarked) [Example 500] | 0.0049 | 
